Columns and labels:
[1] = molecular target: Carbonic anhydrase 1 (Homo sapiens) (UniProt P00915); test: Activation of human recombinant CA1 by stopped flow CO2 hydrase method
[2] = molecular target: Carbonic anhydrase 2 (Homo sapiens) (UniProt P00918); test: Activation of human recombinant CA2 by stopped flow CO2 hydrase method
[3] = molecular target: Carbonic anhydrase 6 (Homo sapiens) (UniProt P23280); test: Activation of human recombinant CA6 by stopped flow CO2 hydrase method
N[C@H](Cc1ccccc1)C(=O)O = conditions: Homo sapiens; 10 uM

The chains behind the UniProt entries cited, without tags or fusion partners. Where a name states a change or a piece, a line headed by the entry shows the natural chain unless it says otherwise.
UniProt P00915: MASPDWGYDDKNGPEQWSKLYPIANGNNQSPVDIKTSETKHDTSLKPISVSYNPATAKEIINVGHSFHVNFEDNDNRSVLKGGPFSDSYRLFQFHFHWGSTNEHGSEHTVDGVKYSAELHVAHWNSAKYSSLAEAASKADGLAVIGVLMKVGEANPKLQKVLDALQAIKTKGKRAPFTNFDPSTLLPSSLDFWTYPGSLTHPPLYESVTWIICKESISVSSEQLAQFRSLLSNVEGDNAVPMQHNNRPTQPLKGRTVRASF
UniProt P23280: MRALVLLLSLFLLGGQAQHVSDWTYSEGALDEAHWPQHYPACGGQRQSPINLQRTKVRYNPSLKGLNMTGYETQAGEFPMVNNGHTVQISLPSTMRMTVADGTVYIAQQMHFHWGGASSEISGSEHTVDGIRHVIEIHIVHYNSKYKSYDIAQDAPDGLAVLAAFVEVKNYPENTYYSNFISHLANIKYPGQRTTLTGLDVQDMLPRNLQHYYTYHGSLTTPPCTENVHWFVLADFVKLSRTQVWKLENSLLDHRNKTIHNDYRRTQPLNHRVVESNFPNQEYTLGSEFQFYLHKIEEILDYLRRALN

Ka [1]	Ka [2]	Ka [3]	Compound	kcat (N[C@H](Cc1ccccc1)C(=O)O)
0.07 µM	0.013 µM	1.23 µM	N[C@@H](Cc1ccccc1)C(=O)O	
			Carbonic anhydrase 1 (Homo sapiens), P00915	2.3 10^5/s
86 µM	0.035 µM	16 µM	N[C@H](Cc1ccccc1)C(=O)O	

Reference: ChEMBL document CHEMBL1139982, “Carbonic anhydrase activators: the first activation study of the human secretory isoform VI with amino acids and amines” (Bioorg Med Chem, 2007)
